Assay results: patent US10670605B2, “Cysteine reactive probes and uses thereof” (The Scripps Research Institute, priority 2015, dated 2020)

What was measured:
active CASP3 [1] = molecular target: T1, active CASP3 (Homo sapiens, UniProt P42574); assay: CASP3 in vitro activity assay (substrate); type: biochemical; settings: fragments 100 μM; DEVD-CHO 20 μM
primary human T cells [2] = assay: FasL-induced apoptosis in activated primary T cells; type: cell-based; settings: anti-CD3, anti-CD28-activated primary human T cells
active CASP8 C360 = active CASP8 C360 (Homo sapiens, UniProt Q14790); assay: isoTOP-ABPP of recombinant caspase added to cell lysate; settings: 30 μM, 1 h, recombinant protein in cell lysate
pro-CASP8 C360 = pro-CASP8 C360 (Homo sapiens, UniProt Q14790, D374A/D384A); assay: as above; settings: 30 μM, 1 h, recombinant protein in cell lysate
active CASP3 [3] = molecular target: T1, active CASP3; assay: Rho-DEVD-AOMK probe labeling of active CASP3; type: binding
USP22 C171 (Q9UPT9) = USP22 C171 (Q9UPT9) (Homo sapiens, UniProt Q9UPT9); assay: Competitive isoTOP-ABPP, cell lysates; type: binding; settings: 500 μM, invitro, ramos
Description: (§1) TEV digests were pressure loaded onto a 250 μm (inner diameter) fused silica capillary column packed with C18 resin (Aqua 5 μm, Phenomenex). The samples were analyzed by multidimensional liquid chromatography tandem mass spectrometry (MudPIT), using an LTQ-Velos Orbitrap mass spectrometer (Thermo Scientific) coupled to an Agilent 1200-series quaternary pump. The peptides were eluted onto a biphasic column with a 5 μm tip (100 μm fused silica, packed with C18 (10 cm) and bulk strong cation exchange resin (3 cm, SCX, Phenomenex,)) in a 5-step MudPIT experiment, using 0%, 30%, 60%, 90%, and 100% salt bumps of 500 mM aqueous ammonium acetate and using a gradient of 5-100% buffer B in buffer A (buffer A: 95% water, 5% acetonitrile, 0.1% formic acid; buffer B: 5% water, 95% acetonitrile, 0.1% formic acid) as has been described in Weerapana et al. Nat Protoc 2:1414-1425 (2007). Data was collected in data-dependent acquisition mode with dynamic exclusion enabled (20 s, repeat of 2). One full MS (MS1) scan (400-1800 m/z) was followed by 30 MS2 scans (ITMS) of the nth most abundant ions.
(§2) The ratios of heavy/light for each unique peptide (DMSO/compound treated; isoTOP-ABPP ratios, R values) were quantified with in-house CIMAGE software, using default parameters (3 ms s per peak and signal to noise threshold 2.5). Site-specific engagement of electrophilic fragments was assessed by blockade of IA-alkyne probe labeling. […] Ratios for unique peptide entries were calculated for each experiment; overlapping peptides with the same modified cysteine (e.g. different charge states, MudPIT chromatographic steps or tryptic termini) were grouped together and the median ratio was reported as the final ratio (R). The peptide ratios reported by CIMAGE were further filtered to ensure the removal or correction of low quality ratios in each individual dataset. The quality filters applied were the following: removal of half tryptic peptides; for ratios with high standard deviations from the median (90% of the median or above) the lowest ratio was taken instead of the median; removal of peptides with R=20 and only a single ms2 event triggered during the elution of the parent ion; manual annotation of all the peptides with ratios of 20, removing any peptides with low-quality elution profiles that remained after the previous curation steps. Proteome reactivity values for individual fragments were computed as the percentage of the total quantified cysteine-containing peptides with R values≥4 (defined as liganded cysteines) for each replicate experiment and the final proteome reactivity value was calculated as the mean for all replicate experiments for each fragment from both MDA-MB-231 and Ramos cellular proteomes.
(§3) Biological replicates of the same compound and cell-line were averaged if the standard deviation was below 60% of the mean; otherwise the lowest value of the ratio set was taken.

ADA C75 (P00813) = ADA C75 (P00813) (Homo sapiens, UniProt P00813); assay: Competitive isoTOP-ABPP, cell lysates; type: binding; settings: 500 μM, invitro, ramos
Description: as §1, §2, §3

IDH1 C269 (O75874) = IDH1 C269 (O75874) (Homo sapiens, UniProt O75874); assay: Competitive isoTOP-ABPP, cell lysates; type: binding; settings: 500 μM, invitro, 231
Description: as §1, §2, §3

XPO1 C528 (O14980) = XPO1 C528 (O14980) (Homo sapiens, UniProt O14980); assay: Competitive isoTOP-ABPP, cell lysates; type: binding; settings: 500 μM, invitro, 231
Description: as §1, §2, §3

XPO1 C34 (O14980) = XPO1 C34 (O14980) (Homo sapiens, UniProt O14980); assay: Competitive isoTOP-ABPP, cell lysates; type: binding; settings: 500 μM, invitro
Description: as §1, §2, §3

PRMT1 C109 (Q99873) = PRMT1 C109 (Q99873) (Homo sapiens, UniProt Q99873); assay: Competitive isoTOP-ABPP, cell lysates; type: binding; settings: 500 μM, invitro
Description: as §1, §2, §3

CASP8 C360 (Q14790) = CASP8 C360 (Q14790) (Homo sapiens, UniProt Q14790); assay: Competitive isoTOP-ABPP, cell lysates; type: binding; settings: 50 μM, Ramos and Jurkat cell lysates
Description: as §1, §2, §3

STAT3 C259 (P40763) = STAT3 C259 (P40763) (Homo sapiens, UniProt P40763); assay: Competitive isoTOP-ABPP, cell lysates; type: binding; settings: 500 μM, invitro
Description: as §1, §2, §3

ZNF217 C286 (O75362) = ZNF217 C286 (O75362) (Homo sapiens, UniProt O75362); assay: Competitive isoTOP-ABPP, cell lysates; type: binding; settings: 500 μM, invitro, 231
Description: as §1, §2, §3

UBE2S C118 (Q16763) = UBE2S C118 (Q16763) (Homo sapiens, UniProt Q16763); assay: Competitive isoTOP-ABPP, cell lysates; type: binding; settings: 500 μM, invitro, 231
Description: as §1, §2, §3

UBE2L3 C86 (P68036) = UBE2L3 C86 (P68036) (Homo sapiens, UniProt P68036); assay: Competitive isoTOP-ABPP, cell lysates; type: binding; settings: 500 μM, invitro, 231
Description: as §1, §2, §3

DCUN1D1 C115 (Q96GG9) = DCUN1D1 C115 (Q96GG9) (Homo sapiens, UniProt Q96GG9); assay: Competitive isoTOP-ABPP, cell lysates; type: binding; settings: 500 μM, invitro, ramos
Description: as §1, §2, §3

UCHL3 C95 (P15374) = UCHL3 C95 (P15374) (Homo sapiens, UniProt P15374); assay: Competitive isoTOP-ABPP, cell lysates; type: binding; settings: 500 μM, invitro, 231
Description: as §1, §2, §3

primary human T cells [4] = assay: Western blot of caspase and RIPK processing; type: cell-based; settings: FasL-treated primary human T cells
CASP2 C320 = CASP2 C320 (Homo sapiens, UniProt P42575); assay: Competitive isoTOP-ABPP, Jurkat cell lysates; type: binding; settings: 50 μM, 1 h
CASP7 C186 = CASP7 C186 (Homo sapiens, UniProt P55210); assay: Competitive isoTOP-ABPP, Jurkat cell lysates; type: binding; settings: 50 μM, 1 h
Jurkat cells = assay: Western blot of PARP, CASP8 and CASP3 cleavage; settings: 30 μM

## O=C(c1ccccc1)N1CCC(N(C(=O)CCl)c2ccccc2)CC1
Active CASP3 [1]
  CASP3 activity (substrate assay): not observed
Primary human T cells [2]
  FasL-induced apoptosis: completely inhibited
Active CASP8 C360
  R value (DMSO/fragment), C360 of active CASP8: 1.9
pro-CASP8 C360
  R value (DMSO/fragment), C360 of pro-CASP8: 10
Active CASP3 [3]
  Rho-DEVD-AOMK labeling of active CASP3: not observed
USP22 C171 (Q9UPT9)
  isoTOP-ABPP ratio, Q9UPT9_C171: 3.2
ADA C75 (P00813)
  isoTOP-ABPP ratio, P00813_C75: 1.4
IDH1 C269 (O75874)
  isoTOP-ABPP ratio, O75874_C269: 1.2
XPO1 C528 (O14980)
  isoTOP-ABPP ratio, O14980_C528: 0.7
XPO1 C34 (O14980); 231
  isoTOP-ABPP ratio, O14980_C34: 1.7
XPO1 C34 (O14980); ramos
  isoTOP-ABPP ratio, O14980_C34: 1.8
PRMT1 C109 (Q99873); 231
  isoTOP-ABPP ratio, Q99873_C109: 1.1
PRMT1 C109 (Q99873); ramos
  isoTOP-ABPP ratio, Q99873_C109: 1.1
CASP8 C360 (Q14790)
  IA-alkyne labeling of C360 of CASP8: fully blocked
STAT3 C259 (P40763); 231
  isoTOP-ABPP ratio, P40763_C259: 1.3
STAT3 C259 (P40763); ramos
  isoTOP-ABPP ratio, P40763_C259: 1.8
ZNF217 C286 (O75362)
  isoTOP-ABPP ratio, O75362_C286: 1.3
UBE2S C118 (Q16763)
  isoTOP-ABPP ratio, Q16763_C118: 1.5
UBE2L3 C86 (P68036)
  isoTOP-ABPP ratio, P68036_C86: 0.9
DCUN1D1 C115 (Q96GG9)
  isoTOP-ABPP ratio, Q96GG9_C115: 1.6
UCHL3 C95 (P15374)
  isoTOP-ABPP ratio, P15374_C95: 0.8
Primary human T cells [4]
  proteolytic processing of CASP3 and CASP10: prevented
CASP2 C320
  IA-alkyne labeling of endogenous CASP2: not observed
CASP7 C186
  IA-alkyne labeling of endogenous CASP7: not observed
Jurkat cells; FASL-treated Jurkat cells
  proteolytic processing of CASP3, CASP8 and PARP: completely blocked
Jurkat cells; STS-treated Jurkat cells
  cleavage of CASP8: substantially inhibit
  cleavage of PARP and CASP3: did not block
